Numbers after ± are expanded uncertainties.
Conditions: 298.15 K; 101.33 kPa; Liquid

mass density: 1120.09 ± 0.59 kg/m3
SMILES: OCCOCCOCCOCCO [tetraethylene glycol]

Source: the NIST ThermoML archive (doi:10.1021/je049943s)
